In ChEMBL document CHEMBL5625255, “Discovery of a novel series of potent carbonic anhydrase inhibitors with selective affinity for μ Opioid receptor for Safer and long-lasting analgesia” (2023):
This is a selection: effects in other tests are not listed, and their absence says nothing.

Sequences of proteins named here, by UniProt entry; tags and fusion partners are left off. Residues count along the entry.
UniProt Q9ULX7, 16-337 limits assumed: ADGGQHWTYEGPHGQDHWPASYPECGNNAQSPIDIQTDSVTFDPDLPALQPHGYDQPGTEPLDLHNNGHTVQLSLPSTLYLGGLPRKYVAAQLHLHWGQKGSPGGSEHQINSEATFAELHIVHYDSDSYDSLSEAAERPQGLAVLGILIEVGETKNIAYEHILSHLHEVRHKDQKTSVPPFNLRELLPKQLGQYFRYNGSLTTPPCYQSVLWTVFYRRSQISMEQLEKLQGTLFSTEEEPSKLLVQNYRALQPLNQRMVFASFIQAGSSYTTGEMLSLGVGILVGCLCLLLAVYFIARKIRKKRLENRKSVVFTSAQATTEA
UniProt P22748, 19-284 limits assumed: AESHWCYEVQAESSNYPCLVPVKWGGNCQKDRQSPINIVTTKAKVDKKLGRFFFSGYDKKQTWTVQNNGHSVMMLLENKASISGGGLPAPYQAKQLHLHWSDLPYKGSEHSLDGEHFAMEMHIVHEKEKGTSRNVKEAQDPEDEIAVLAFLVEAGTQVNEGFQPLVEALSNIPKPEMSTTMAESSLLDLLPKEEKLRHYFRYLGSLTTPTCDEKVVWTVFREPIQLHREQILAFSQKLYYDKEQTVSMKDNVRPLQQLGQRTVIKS
UniProt Q8N1Q1, whole entry: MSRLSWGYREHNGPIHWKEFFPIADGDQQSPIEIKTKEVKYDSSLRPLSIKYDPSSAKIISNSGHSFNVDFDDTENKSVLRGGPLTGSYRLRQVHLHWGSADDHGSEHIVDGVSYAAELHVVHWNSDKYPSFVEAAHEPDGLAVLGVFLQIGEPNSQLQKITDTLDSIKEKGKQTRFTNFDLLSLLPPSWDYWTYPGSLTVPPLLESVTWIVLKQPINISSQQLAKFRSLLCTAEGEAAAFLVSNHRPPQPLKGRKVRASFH
UniProt P35218, 39-305 limits assumed: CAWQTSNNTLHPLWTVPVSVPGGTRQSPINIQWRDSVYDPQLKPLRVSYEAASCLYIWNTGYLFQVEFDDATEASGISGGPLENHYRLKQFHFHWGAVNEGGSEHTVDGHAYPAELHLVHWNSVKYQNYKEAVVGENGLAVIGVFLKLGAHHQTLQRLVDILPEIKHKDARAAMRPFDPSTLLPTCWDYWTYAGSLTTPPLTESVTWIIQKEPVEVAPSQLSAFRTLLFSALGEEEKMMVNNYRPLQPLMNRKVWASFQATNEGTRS
UniProt P43166, whole entry: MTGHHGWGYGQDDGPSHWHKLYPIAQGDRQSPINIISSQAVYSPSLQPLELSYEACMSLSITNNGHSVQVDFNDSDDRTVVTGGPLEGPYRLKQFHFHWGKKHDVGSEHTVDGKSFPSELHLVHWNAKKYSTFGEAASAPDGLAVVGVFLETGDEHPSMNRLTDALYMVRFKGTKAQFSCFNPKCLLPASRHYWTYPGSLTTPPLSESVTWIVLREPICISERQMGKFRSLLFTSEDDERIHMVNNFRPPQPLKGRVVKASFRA
UniProt P00915, 2-261 limits assumed: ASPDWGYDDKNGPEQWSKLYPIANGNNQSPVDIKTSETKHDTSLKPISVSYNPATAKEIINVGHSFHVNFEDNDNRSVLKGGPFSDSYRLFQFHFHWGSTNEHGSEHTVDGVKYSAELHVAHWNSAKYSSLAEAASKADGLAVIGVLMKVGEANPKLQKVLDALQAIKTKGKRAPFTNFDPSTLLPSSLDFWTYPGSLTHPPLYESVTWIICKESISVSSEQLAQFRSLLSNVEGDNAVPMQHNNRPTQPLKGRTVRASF
UniProt O43570, 25-354 limits assumed: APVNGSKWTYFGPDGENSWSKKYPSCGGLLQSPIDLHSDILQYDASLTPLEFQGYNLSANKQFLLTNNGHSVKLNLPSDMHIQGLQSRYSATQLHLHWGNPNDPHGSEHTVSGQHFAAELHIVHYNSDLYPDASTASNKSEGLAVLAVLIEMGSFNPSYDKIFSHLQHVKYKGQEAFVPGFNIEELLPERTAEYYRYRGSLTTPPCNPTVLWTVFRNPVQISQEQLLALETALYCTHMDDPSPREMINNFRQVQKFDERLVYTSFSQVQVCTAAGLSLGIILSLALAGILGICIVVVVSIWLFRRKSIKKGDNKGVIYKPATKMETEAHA

Tests used:
Carbonic anhydrase 14 = Carbonic anhydrase 14 (Homo sapiens, UniProt Q9ULX7); experiment: Inhibition of recombinant human CA-XIV incubated for 15 mins by stop-flow method
Carbonic anhydrase 4 = Carbonic anhydrase 4 (Homo sapiens, UniProt P22748); experiment: Inhibition of recombinant human CA-IV incubated for 15 mins by stop-flow method
Carbonic anhydrase 13 = Carbonic anhydrase 13 (Homo sapiens, UniProt Q8N1Q1); experiment: Inhibition of recombinant human CA-XIII incubated for 15 mins by stop-flow method
[1] = biological target: Carbonic anhydrase 5A, mitochondrial (Homo sapiens, UniProt P35218); experiment: Inhibition of recombinant human CA-VA incubated for 15 mins by stop-flow method
Carbonic anhydrase 7 = Carbonic anhydrase 7 (Homo sapiens, UniProt P43166); experiment: Inhibition of recombinant human CA-VII incubated for 15 mins by stop-flow method
Carbonic anhydrase 9 = Carbonic anhydrase 9 (Homo sapiens, UniProt Q16790); experiment: Inhibition of recombinant human CA-IX incubated for 15 mins by stop-flow method
Carbonic anhydrase 1 = Carbonic anhydrase 1 (Homo sapiens, UniProt P00915); experiment: Inhibition of recombinant human CA-I incubated for 15 mins by stop-flow method
Carbonic anhydrase 12 = Carbonic anhydrase 12 (Homo sapiens, UniProt O43570); experiment: Inhibition of recombinant human CA-XII incubated for 15 mins by stop-flow method
Carbonic anhydrase 2 = Carbonic anhydrase 2 (Homo sapiens, UniProt P00918); experiment: Inhibition of recombinant human CA-II incubated for 15 mins by stop-flow method

SMILES | Ki (Carbonic anhydrase 14) [nM] | Ki (Carbonic anhydrase 4) [nM] | Ki (Carbonic anhydrase 13) [nM] | Ki [1] [nM] | Ki (Carbonic anhydrase 7) [nM] | Ki (Carbonic anhydrase 9) [nM] | Ki (Carbonic anhydrase 1) [nM] | Ki (Carbonic anhydrase 12) [nM] | Ki (Carbonic anhydrase 2) [nM]
NS(=O)(=O)c1ccc(CCN2CCC(Nc3ccc4ccccc4c3)CC2)cc1 | 253 | 9210 | – | – | – | – | – | – | –
NS(=O)(=O)c1ccc(C(=O)NCC2(Nc3ccccc3)CCN(CCc3ccccc3)CC2)cc1 | – | – | 70.7 | 79.2 | 23.1 | – | – | – | –
Cc1ccc(NC2(C#N)CCN(CCc3ccc(S(N)(=O)=O)cc3)CC2)cc1 | – | – | – | 261 | – | 36.2 | 60.3 | – | –
NS(=O)(=O)c1ccc(NC(=O)NCC2(Nc3ccccc3)CCN(CCc3ccccc3)CC2)cc1 | – | – | – | 796 | 24.2 | – | 452 | 33.3 | 33
NC(=O)C1(Nc2ccccc2)CCN(CCc2ccc(S(N)(=O)=O)cc2)CC1 | 74.1 | – | – | – | – | – | 75.9 | – | –
NS(=O)(=O)c1ccc(NC(=S)NCC2(Nc3ccccc3)CCN(CCc3ccccc3)CC2)cc1 | 55.3 | 9180 | 82.8 | 719 | 33.6 | 18.9 | 291 | 14.8 | 8.5
